Reference: PubChem BioAssay AID488928 (Johns Hopkins Ion Channel Center, 2010)
The list shows a part of the results, in another mix than the full data. The source made the active and inactive calls.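 Rule for the calls: active = drop in membrane potential signal beyond 5 SD of the control wells in both duplicate plates; inactive = the rest.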

Tested on: TRPC4 (transient receptor potential cation channel C4), mouse
Assay: TRPC4 inhibition by TRPC6 hit compounds, confirmation, selectivity assay for TRPC6 modulator project, cell-based, second screen, HEK293 TRPC4/mu-opioid, membrane potential dye (AID 488928);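 note: TRPC4 counter screen for TRPC6 hits run under conditions tuned for TRPC6 not TRPC4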
Conditions: membrane potential dye fluorescence, at 10 µM, stimulated with maximal-effect DAMGO; stronger effect = higher value

SMILES | inhibition
O=C(OC1CN2CCC1CC2)C1c2ccccc2C=Cc2ccccc21 (configuration not stated) | active: 43.5%
CN1CCN(CCOC(=O)C(O)(c2ccccc2)c2ccccc2)CC1 | inactive
